Literature values, collected in paper PMC9321663, “The DevTox Germ Layer Reporter Platform: An Assay Adaptation of the Human Pluripotent Stem Cell Test” (Toxics, 2022).

Conditions: Table S2; cited from earlier work

Row | SMILES | Development Toxicant Classification
1 | CCCc1cc(=O)[nH]c(=S)[nH]1 | Positive
2 | OB(O)O [Boric acid] | Positive
